# In patent US9688760B2, “Anti-leukocyte adhesion for the mitigation of potential adverse events caused by CD3-specific binding domains” (AMGEN RESEARCH (MUNICH) GMBH, priority 2013, dated 2017):
# “Also recorded” adds a separate entry of the source.
# How the values were obtained:
# [1] = test system: ICAM-1, P-selectin and VCAM-1 on HBMEC; assay: Immunofluorescence staining of HBMEC after T cell-rolling; assay type: cell-based, human; conditions: histamine-stimulated HBMEC; Blinatumomab plus pre-incubation of HBMEC with PPS
# Description: After rolling and adhesion of T cells on HBMEC or HUVEC under flow conditions, endothelial cells were fixed using 150 μl of 4% paraformaldehyde solution (#P-6148, Sigma-Aldrich) for 30 min at 4° C. μ-slides were rinsed with 150 μl of D-PBS and subjected to immunofluorescence staining. HBMEC were first blocked with 150 μl of avidin blocking reagent (#PHA-70871, reagent 1, Dianova) for 10 min at room temperature, washed with 150 μl of D-PBS followed by incubation with 150 μl of biotin blocking reagent (#PHA-70871, reagent 2, Dianova). All following staining procedures were performed in 150 μl of D-PBS with 5% FBS at room temperature in the dark, and washing steps were done in 150 μl of D-PBS. μ-slides were incubated with 5 μg/ml polyclonal rabbit anti-human VCAM-1 (#106777, abcam) for 1 h. After washing, 20 μg/ml goat anti-rabbit IgG-DyLight350 was added for 1 h followed by washing and incubation with 15 μg/ml mouse anti-human P-selectin IgG1 (#BBA30, R&D Systems) for 2 h. After washing, goat anti-mouse IgG-Alexa488 (1:100) (#A10680, Invitrogen) was added for 1 h. […] VCAM-1 staining was monitored with a CFL EPI-FL Filter Block UV-2A (#MBE41200, Nikon), P-selectin staining with a CFL EPI-FL Filter Block GFP-B (#MBE44740, Nikon), and ICAM-1 staining with an EPI-FL Filter Block Cy3 (#MXU96213, Nikon). […]
# patients = assay: Phase 1 clinical study: Blinatumomab with PPS co-medication; assay type: in vivo, human; conditions: PPS co-medication with Blinatumomab 5 then 60 μg/m^2/day
# Description: Three patients received in particular an intravenous PPS infusion during both the start-of-infusion phase at 5 μg/m^2/day of Blinatumomab and the dose-step phase to 60 μg/m^2/day after treatment week 1 (see also the Example section for further details). […] Thus, much to the surprise of the present inventors it was indeed possible to mitigate the expected CNS AE in these patients by way of decreasing the adhesion of re-directed T-cells to the respective endothelial cells. […] In two cases (D and E), there was even an increased T cell-count at 45 minutes. In one case (F), an increased T cell-count was still observed at 2 hours. The redistribution process and thus the underlying leukocyte adhesion to blood vessel endothelium was obviously slowed down by intervention with intravenous PPS as decreased T cell-counts in the peripheral blood were not detected earlier than 2 hours after start of infusion or stepwise dose increase of Blinatumomab.
# In a phase 1 clinical study three patients were treated with Blinatumomab at an initial dose of 5 μg/m^2/day for 1 week followed by a dose escalation to 60 μg/m^2/day for additional 3 to 7 weeks. Concomitant PPS was administered as 100 mg bolus iv infusion at 3 h±30 min prior to start of infusion and dose escalation of Blinatumomab followed by perfusion of 300 mg/day for 48 h after start of infusion and dose escalation of Blinatumomab.
substance,measurement,setting,value
"β1→4-D-Xylan-2,3-bis(hydrogen sulfate) [PPS]",cell surface expression of P-selectin on HBMEC,[1],lesser increase; also recorded: reduced cell surface expression of P-Selectin
same,treatment discontinuation due to CNS AEs,"patients; Patient 109-036, low B:T cell-ratio",no treatment discontinuation due to CNS AEs was required
same,treatment discontinuation due to CNS AEs,"patients; Patient 109-040, low B:T cell-ratio",no treatment discontinuation due to CNS AEs was required
same,treatment discontinuation due to CNS AEs,"patients; Patient 109-042, low B:T cell-ratio",no treatment discontinuation due to CNS AEs was required
